Results taken from US10865196B2, “Compounds for treatment of cancer” (University of Tennessee Research Foundation, priority 2008, dated 2020).

System: PC-3/TxR
Experiment: SRB antiproliferation assay, paclitaxel-resistant PC-3/TxR
Conditions: IC50 values in PC-3 and PC-3/TxR compared

Compound: COc1cc(C(=O)c2csc(Nc3ccc4[nH]ccc4c3)n2)cc(OC)c1OC [compound 55, (2-(1H-indol-5-ylamino)thiazol-4-yl)(3,4,5-trimethoxyphenyl)methanone]
- resistance factor PC-3/TxR vs PC-3: 0.4
